System: v-Ha-ras transformed NIH3T3 cells

methyl ester Derivative of cysteinyl-(Nα-methyl)valyl-(Nα-cyclohexyl)glycyl-methionine [Semipeptoid 12]
lack of toxic effects up to: up to 250 mM

From patent US5990277A, “Semipeptoid farnesyl protein transferase inhibitors and analogs thereof” (Yissum Research Development Company of the Herbrew …, priority 1996, dated 1999)
